# Membrane permeability of cyclic peptides

Values of Townsend et al. 2020, doi:10.26434/chemrxiv.13335941.v1, as listed in CycPeptMPDB.

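The data file gives no further conditions (lipid, pH, time, direction or concentration), and values from different papers need not be comparable. Other peptides of the study may be missing here. Entries at the database's floor value (log10 P of -10) are not listed.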

PAMPA is the parallel artificial membrane permeability assay, which has no cells and reads passive diffusion. Permeability is given as log10 of P in cm/s; higher (less negative) is more permeable.

Listed for CC(C)C[C@H]1NC(=O)[C@H](CC(C)C)N(C)C(=O)[C@H](C)N(C)C(=O)[C@@H]2CCCN2C(=O)[C@H](Cc2ccccc2)NC(=O)CN(Cc2ccccc2)C(=O)[C@@H]2CCCN2C1=O: PAMPA -5.90 (log10 cm/s). The entry for CC(C)C[C@@H]1NC(=O)[C@@H](CC(C)C)NC(=O)[C@@H](C)N(C)C(=O)[C@H]2CCCN2C(=O)[C@H](Cc2ccccc2)NC(=O)[C@H](CC(C)C)N(C)C(=O)[C@@H]2CCCN2C1=O lists PAMPA -5.32 (log10 cm/s). CC(C)C[C@@H]1C(=O)N(C)[C@@H](CC(C)C)C(=O)N2CCC[C@H]2C(=O)N(C)[C@H](CC(C)C)C(=O)N[C@@H](Cc2ccccc2)C(=O)N2CCC[C@@H]2C(=O)N[C@@H](Cc2ccccc2)CC(=O)N1C is reported with PAMPA -5.38 (log10 cm/s). CC(C)C[C@H]1NC(=O)[C@@H]2CCCN2C(=O)[C@H](CC(C)C)N(C)C(=O)[C@@H](CC(C)C)NC(=O)[C@H](C)N(C)C(=O)[C@@H]2CCCN2C(=O)[C@H](Cc2ccccc2)NC1=O is reported with PAMPA -6.38 (log10 cm/s).

CC(C)C[C@@H]1NC(=O)[C@H](C)N(C)C(=O)[C@H]2CCCN2C(=O)[C@H](Cc2ccccc2)NC(=O)CN(Cc2ccccc2)C(=O)[C@@H]2CCCN2C(=O)[C@H](CC(C)C)N(C)C1=O is reported with PAMPA -5.08 (log10 cm/s). CC(C)C[C@@H]1NC(=O)[C@H](C)N(C)C(=O)[C@H](Cc2ccccc2)NC(=O)[C@@H](CC(C)C)NC(=O)[C@H]2CCCN2C(=O)[C@H](CC(C)C)N(C)C1=O has PAMPA -6.19 (log10 cm/s). CC(C)C[C@H]1NC(=O)[C@@H]2CCCN2C(=O)[C@H](CC(C)C)N(C)C(=O)[C@H](CC(C)C)N(C)C(=O)[C@@H](C)N(C)C(=O)[C@H]2CCCN2C(=O)[C@H](Cc2ccccc2)NC1=O is reported with PAMPA -7.31 (log10 cm/s). The entry for CC(C)C[C@@H]1NC(=O)[C@@H](C)N(C)C(=O)[C@@H]2CCCN2C(=O)[C@H](Cc2ccccc2)NC(=O)CN(Cc2ccccc2)C(=O)[C@@H]2CCCN2C(=O)[C@H](CC(C)C)NC1=O lists PAMPA -6.32 (log10 cm/s).

For CC(C)C[C@@H]1NC(=O)[C@@H](CC(C)C)N(C)C(=O)C[C@H](Cc2ccccc2)NC(=O)[C@H](Cc2ccccc2)NC(=O)[C@H](CC(C)C)N(C)C(=O)[C@@H]2CCCN2C1=O the data give PAMPA -5.10 (log10 cm/s). CC(C)C[C@@H]1NC(=O)[C@H]2CCCN2C(=O)[C@H](CC(C)C)NC(=O)CN(Cc2ccccc2)C(=O)[C@@H](C)N(C)C(=O)[C@H](Cc2ccccc2)NC1=O is reported with PAMPA -5.83 (log10 cm/s). CC(C)C[C@@H]1C(=O)N(C)[C@@H](CC(C)C)C(=O)N2CCC[C@H]2C(=O)N(C)[C@H](CC(C)C)C(=O)N[C@@H](Cc2ccccc2)C(=O)N2CCC[C@H]2C(=O)N(C)[C@H](C)C(=O)N1C has PAMPA -5.83 (log10 cm/s). For CC(C)C[C@@H]1C(=O)N[C@@H](Cc2ccccc2)C(=O)N2CCC[C@@H]2C(=O)N(C)[C@@H](C)C(=O)N(C)[C@H](CC(C)C)C(=O)N(Cc2ccccc2)CC(=O)N2CCC[C@@H]2C(=O)N1C the data give PAMPA -5.40 (log10 cm/s).

For CC(C)C[C@@H]1C(=O)N(Cc2ccccc2)CC(=O)N2CCC[C@H]2C(=O)N(C)[C@@H](CC(C)C)C(=O)N[C@@H](Cc2ccccc2)C(=O)N2CCC[C@H]2C(=O)N[C@@H](C)C(=O)N1C the data give PAMPA -5.80 (log10 cm/s). For CC(C)C[C@@H]1NC(=O)[C@@H]2CCCN2C(=O)C[C@H](Cc2ccccc2)NC(=O)[C@@H](CC(C)C)NC(=O)[C@H](C)NC(=O)[C@@H]2CCCN2C(=O)[C@H](Cc2ccccc2)NC1=O the data give PAMPA -6.22 (log10 cm/s). CC(C)C[C@@H]1NC(=O)[C@@H]2CCCN2C(=O)[C@@H](CC(C)C)N(C)C(=O)[C@H](CC(C)C)NC(=O)C[C@H](Cc2ccccc2)NC(=O)[C@H](Cc2ccccc2)NC1=O has PAMPA -5.16 (log10 cm/s). The entry for CC(C)C[C@@H]1C(=O)N2CCC[C@H]2C(=O)N(Cc2ccccc2)CC(=O)N[C@@H](Cc2ccccc2)C(=O)N[C@H](C)C(=O)N(C)[C@H](CC(C)C)C(=O)N1C lists PAMPA -5.37 (log10 cm/s).

Listed for CCCN1CC(=O)N(Cc2ccccc2)CC(=O)N[C@H](CC(C)C)C(=O)N2CCC[C@H]2C(=O)N(C)[C@@H](CC(C)C)C(=O)N[C@@H](Cc2ccccc2)C(=O)N2CCC[C@H]2C1=O: PAMPA -5.40 (log10 cm/s). Listed for CC(C)C[C@H]1NC(=O)[C@H]2CCCN2C(=O)CN(Cc2ccccc2)C(=O)[C@@H](CC(C)C)NC(=O)[C@H](C)NC(=O)[C@H](Cc2ccccc2)NC1=O: PAMPA -5.62 (log10 cm/s). Listed for CC(C)C[C@@H]1C(=O)N(C)[C@H](CC(C)C)C(=O)N2CCC[C@H]2C(=O)N[C@H](CC(C)C)C(=O)N[C@@H](Cc2ccccc2)C(=O)N(C)[C@H](C)C(=O)N1C: PAMPA -4.82 (log10 cm/s). For CC(C)C[C@@H]1NC(=O)[C@@H](C)NC(=O)[C@H](Cc2ccccc2)NC(=O)[C@H](CC(C)C)N(C)C(=O)[C@@H]2CCCN2C(=O)[C@@H](CC(C)C)NC1=O the data give PAMPA -5.87 (log10 cm/s).

For CC(C)C[C@H]1NC(=O)[C@H](CC(C)C)N(C)C(=O)[C@H](C)NC(=O)[C@H]2CCCN2C(=O)[C@H](Cc2ccccc2)NC(=O)CN(Cc2ccccc2)C(=O)[C@@H]2CCCN2C1=O the data give PAMPA -5.60 (log10 cm/s). CC(C)C[C@@H]1NC(=O)[C@@H](C)N(C)C(=O)[C@@H]2CCCN2C(=O)[C@H](Cc2ccccc2)NC(=O)[C@@H](CC(C)C)NC(=O)[C@@H]2CCCN2C(=O)CN(Cc2ccccc2)C1=O is reported with PAMPA -5.95 (log10 cm/s). Listed for CC(C)C[C@H]1C(=O)N[C@@H](Cc2ccccc2)C(=O)N2CCC[C@@H]2C(=O)N(C)[C@@H](C)C(=O)N(Cc2ccccc2)CC(=O)N[C@@H](Cc2ccccc2)CC(=O)N2CCC[C@H]2C(=O)N1C: PAMPA -5.58 (log10 cm/s). For CC(C)C[C@H]1C(=O)N[C@@H](Cc2ccccc2)C(=O)N2CCC[C@@H]2C(=O)N[C@@H](Cc2ccccc2)CC(=O)N(Cc2ccccc2)CC(=O)N[C@@H](Cc2ccccc2)CC(=O)N2CCC[C@H]2C(=O)N1C the data give PAMPA -5.77 (log10 cm/s).

A selection of 2 entries from above:

compound	PAMPA (log10 cm/s)
CC(C)C[C@@H]1NC(=O)[C@@H](CC(C)C)NC(=O)[C@@H](C)N(C)C(=O)[C@H]2CCCN2C(=O)[C@H](Cc2ccccc2)NC(=O)[C@H](CC(C)C)N(C)C(=O)[C@@H]2CCCN2C1=O	-5.32
CC(C)C[C@@H]1NC(=O)[C@@H](C)N(C)C(=O)[C@@H]2CCCN2C(=O)[C@H](Cc2ccccc2)NC(=O)[C@@H](CC(C)C)NC(=O)[C@@H]2CCCN2C(=O)CN(Cc2ccccc2)C1=O	-5.95